Assay results: ChEMBL document CHEMBL5376006, “Discovery of a Hidden Pocket beneath the NES Groove by Novel Noncovalent CRM1 Inhibitors” (J Med Chem, 2023)

Chains of the proteins cited; added tags and fusions are not shown.
UniProt O14980, whole entry: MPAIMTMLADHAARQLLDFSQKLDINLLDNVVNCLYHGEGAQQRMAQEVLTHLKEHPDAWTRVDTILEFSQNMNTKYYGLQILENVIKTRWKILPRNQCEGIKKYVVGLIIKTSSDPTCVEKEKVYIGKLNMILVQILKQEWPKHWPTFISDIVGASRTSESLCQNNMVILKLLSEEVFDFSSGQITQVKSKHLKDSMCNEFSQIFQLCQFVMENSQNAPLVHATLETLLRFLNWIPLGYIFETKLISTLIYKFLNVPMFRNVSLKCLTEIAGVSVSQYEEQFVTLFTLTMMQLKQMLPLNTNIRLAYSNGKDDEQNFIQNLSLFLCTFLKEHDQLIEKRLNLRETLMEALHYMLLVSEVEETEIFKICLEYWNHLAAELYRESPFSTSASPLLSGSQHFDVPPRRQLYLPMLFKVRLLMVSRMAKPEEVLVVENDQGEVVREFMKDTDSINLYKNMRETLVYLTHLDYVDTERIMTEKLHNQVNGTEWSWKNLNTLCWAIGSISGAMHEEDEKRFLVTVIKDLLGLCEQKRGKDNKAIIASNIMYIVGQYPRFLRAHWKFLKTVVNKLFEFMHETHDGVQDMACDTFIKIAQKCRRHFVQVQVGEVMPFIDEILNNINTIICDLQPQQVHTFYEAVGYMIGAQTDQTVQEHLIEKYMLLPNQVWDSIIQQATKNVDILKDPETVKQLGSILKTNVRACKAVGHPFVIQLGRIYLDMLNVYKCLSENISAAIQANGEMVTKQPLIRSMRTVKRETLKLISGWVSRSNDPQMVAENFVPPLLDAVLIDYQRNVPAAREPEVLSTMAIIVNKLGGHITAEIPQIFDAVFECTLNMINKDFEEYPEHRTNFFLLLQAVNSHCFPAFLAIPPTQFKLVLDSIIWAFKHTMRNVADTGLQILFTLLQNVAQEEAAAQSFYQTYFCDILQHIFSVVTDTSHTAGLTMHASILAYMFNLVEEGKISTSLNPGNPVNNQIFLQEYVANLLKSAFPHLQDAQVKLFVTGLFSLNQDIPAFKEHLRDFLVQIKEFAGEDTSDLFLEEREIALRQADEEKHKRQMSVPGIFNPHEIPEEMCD

molecular target: Exportin-1 (Homo sapiens, UniProt O14980); test: Inhibition of CRM1 (unknown origin) binding to GST-tagged NES PKI assessed as CRM1/NES band ratio at 20 uM incubated for 1.5 hrs by Coomassie brilliant blue staining based pull-down assay

Row | Ratio | SMILES
1 | 0.08 | O=C(O)c1ccc(N2CCN(c3cc(C(F)(F)F)ccc3C(F)(F)F)CC2)c(NC(=O)c2ccc(Br)cc2)c1
2 | 0.07 | O=C(O)c1ccc(N2CCN(c3cc(C(F)(F)F)ccc3C(F)(F)F)CC2)c(NC(=O)c2ccc(Cl)cc2)c1
3 | 0.1 | O=C(O)c1ccc(N2CCN(c3cc(C(F)(F)F)cc(C(F)(F)F)c3)CC2)c(NC(=O)c2ccc(Br)cc2)c1
